# Apparent affinities of Ab-14 variants for a coronavirus HR2 peptide

Target peptide (SARS-CoV-2 spike, HR2 region): PDVDLGDISGINAS

Parent: Ab-14, a human scFv built as VH, three GGGGS repeats, VL. Only the CDRs of the heavy chain vary.
VH: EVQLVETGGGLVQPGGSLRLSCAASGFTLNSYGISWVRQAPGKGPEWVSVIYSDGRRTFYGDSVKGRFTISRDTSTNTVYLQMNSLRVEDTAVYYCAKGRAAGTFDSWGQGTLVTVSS
VL: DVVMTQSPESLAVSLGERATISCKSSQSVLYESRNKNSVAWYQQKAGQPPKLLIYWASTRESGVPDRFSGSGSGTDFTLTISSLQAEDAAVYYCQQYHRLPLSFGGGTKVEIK

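The variants were designed computationally from a first round of random CDR variants and then made and measured. Several design methods are mixed in this list. The assay is AlphaSeq: two haploid yeast populations carry antibody and antigen on their surface. Mating (16 h, 30 °C) was followed by selection of diploids and sequencing of their barcodes. A regression on co-assayed BCL2-family reference pairs converts the normalised counts of each replicate to an apparent Kd. There are six technical replicates.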

Variants are written as CDR1, CDR2 and CDR3 of the heavy chain (limits as in the source). Parent: GFTLNSYGIS, VIYSDGRRTFYGDSVK, GRAAGTFDS.
Affinities are written as log10 Kd with Kd in nM; a lower number is a better binder.
A mean of the replicates is given; it leaves out those without a signal.
A pair that was not seen in any replicate is written "not detected"; this usually means weak binding, but a binder can also be missed.
Background: pairings of all heavy chain designs with three empty control strains gave a value in 1% of cases (median 2.08, 5th percentile 0.84). Values in that range, when seen in few replicates, are hard to tell from nonspecific mating.
In the paper, a design with two or fewer of six values counts as a poor binder.
The range of this assay differs from that of the first round, and the authors advise against merging the two.

| CDR-H1 | CDR-H2 | CDR-H3 | log10 Kd (nM), mean | detected |
|---|---|---|---|---|
| GFDLNEYGIS | VIYADGRRTAYADSVK | GTNAGTFDV | not detected | 0 of 6 |
| GFTLNSYGIL | VIYGPGRRTFYDDSVK | SQLAGTFDS | not detected | 0 of 6 |
| GFSLNSYGIS | VIYSDGRRTFYSDDVK | GEAAGTFDS | 0.12 | 6 of 6 |
| LFTLNSYGIS | VIYSDGRRTMYGDEVK | GSAAGTFDS | not detected | 0 of 6 |
| GEDLQEYGIS | VIYADGLRTAYADNFK | GHLGGQFDM | 3.04 | 1 of 6 |
| GFNLNEYGIS | VIYADGRRTFYSDSVK | GEAGGTFDV | 0.14 | 3 of 6 |
| GFDLNSYGIS | VIYSDGRRTAYGDSVK | GRHAGTFDS | 0.63 | 6 of 6 |
| GFYLNEYGIS | VIYSDGRRTFYGDQVK | GRTAGTFDS | 0.98 | 5 of 6 |
| GFDLNEYGIS | VIYADGKRTQYIDSVK | GEAAGTFDS | -0.24 | 6 of 6 |
| GFTLNSYGIS | VIYSDGRRTFYSDSVK | GRAGGTNDS | not detected | 0 of 6 |
| GMDLNEYGIS | VIYADGLRTAYINQVK | GKQSVIVGH | not detected | 0 of 6 |
| GFNLNSYGIS | VIYSDGRRTAYGDSVK | GSAAGTFDS | not detected | 0 of 6 |
| GFDLNEYGIS | VIYADGRRTAYADDVK | GQVAGTFDV | -0.92 | 6 of 6 |
| GFDLNEYGIS | VIYADGMRTFYDDSVK | GQVAGTFDF | -0.35 | 6 of 6 |
| GFTLNQYGIS | VIYSDGRLTFYSDSVK | GRAAGFFDS | not detected | 0 of 6 |
| GFTLNEYGIS | VIYSDGRRTFYGDSVK | GKTAGTFDA | 0.16 | 6 of 6 |
| GFDLNEYGIS | VIYADGFRTAYADSVK | GNVAGTFDV | -0.65 | 6 of 6 |
| GFTLNEYGIS | VIYSDGKRTFYGDSVK | GRYAGTFDS | 0.40 | 6 of 6 |
| GFTLNEYGIS | VIYSDGRRTFYSDSVK | GREAGTFFS | 0.82 | 1 of 6 |
| GFNLDSYGVS | VIYSDGRRTAYGDSVK | GRAWGTFDS | 2.40 | 1 of 6 |
| HFELNSYGIS | VIYSDGRRTFYADSVK | GQTAGTFDS | 0.55 | 6 of 6 |
| GFTLNQYGIS | VIYSDGRRTEYSDSVK | GRAAGFFDS | 1.58 | 6 of 6 |
| GFTLNEYGIS | VIYSDGRRTFYGDAVK | GRAAVTFDQ | not detected | 0 of 6 |
| GFQLDEYGIS | VIYADGQRTAYSKNVK | GTIDFKRID | not detected | 0 of 6 |
| GFDLNSYGIS | VIYSDGRRTFYGDSVK | GEAAGTFDK | 0.72 | 6 of 6 |
| GFDLNEYGIS | VIYADGVRTAYANSVK | GNVAGTFDI | -0.57 | 6 of 6 |
| GFTLNEYGIS | VIYSDGRRTFYGDSVK | GFAAGTFDK | 0.88 | 6 of 6 |
| GFTLNSYGIS | VIYADGRRTFYGDSVK | GRLAGTNKS | not detected | 0 of 6 |
| GFTLNSYGIS | VIYSDGRRTFYGDSVK | WQAAHTFDS | not detected | 0 of 6 |
| GFTLNSYGIS | VIYSDGRRTFYADRVK | GNAAGTFDS | 1.11 | 3 of 6 |
| GFDLDEYGIS | VIYADGRRTFYADSVK | GELAGTFDK | 0.79 | 6 of 6 |
| GFTLNSYGIS | VIYSDGRRTYYGDSVK | GRAAGTFDS | 1.85 | 2 of 6 |
| GYTLNSYGIS | VIYSDGRRTFYSDSVR | GRAADTFDS | 1.24 | 2 of 6 |
| GFSLNDYGIS | VIYSDGRRTFYMDSVK | GRTAGTFDS | 0.63 | 6 of 6 |
| GFALNTYGIS | VIYSDGRRTFYGDSVK | GRAAGTFFS | not detected | 0 of 6 |
| GFSLNEYGIS | VIYSDGRRTFYKDSVK | GPAAGTFDR | 1.89 | 1 of 6 |
| GFTLNDYGIS | VIYSVGRRTQYIDSVK | GRAAGTFDS | not detected | 0 of 6 |
| GFDLDQYGIS | VIYADGKRMAYTADVK | GVQGGNALV | not detected | 0 of 6 |

Second part, the sequence after the result:

| log10 Kd (nM), mean | detected | CDR-H1 | CDR-H2 | CDR-H3 |
|---|---|---|---|---|
| -0.04 | 6 of 6 | GFDLNEYGIS | VIYADGRRTFYADSVK | GEIAGTFVF |
| not detected | 0 of 6 | GFTLNQYGIS | VIYSDGNRTFYSDSVK | GRAAGNFDS |
| 0.50 | 6 of 6 | GFSLNSYGIS | VIYSDGRRTFYADPVK | GRTAGTFDS |
| not detected | 0 of 6 | GFSLNDYGIS | VIYSDGRRTFYGDSVK | GRAAGTFIS |
| 2.41 | 5 of 6 | GFDLNSYGIS | VIYSDGRRTFYGDSVK | GRIAGTFKS |
| not detected | 0 of 6 | GFSLNEYGIS | VIYADGLRTEYAQNVK | GYNSSDLTK |
| 0.28 | 6 of 6 | GFDLDEYGIS | VIYADGMRTAYADSVK | GKNAGTFDV |
| -0.21 | 6 of 6 | GFDLDEYGIS | VIYADGQRTAYTDSVK | GENAGTFDI |
| -0.06 | 6 of 6 | GFDLNEYGIS | VIYADGKRTFYADSVK | GENAGTFDI |
| 0.15 | 5 of 6 | GFSLNEYGIS | VIYSDGRRTFYTDSVK | GFAAGTFDL |
| 0.18 | 6 of 6 | GFELNMYGIS | VIYSDGRRTFYHDSVK | GSAAGTFDS |
| not detected | 0 of 6 | GKNLDEYGVS | VIYADGKRTAYTNNFK | GGNAGFFKS |
| not detected | 0 of 6 | GFTLNQYGIS | VIYSDGRRQSYSDSVK | GRAAGFFDS |
| 2.68 | 1 of 6 | GFDLNSYGIS | VIYSDGRRTFYGDSVK | GRAAGWFLS |
| not detected | 0 of 6 | LFTLNSYGIS | VIYSDPRRTFYGDSVK | GRAAITFDS |
| not detected | 0 of 6 | GFTCNSYGIS | VIYSDGRRTFYGDDVK | GRAAGTFDS |
| 0.65 | 1 of 6 | GETLNSYGIS | VIYSDGRRTFYGDSVK | GRNAGTFTS |
| not detected | 0 of 6 | GFTNNQYGDS | VIYSDGRRTFYSDSVK | GRAKGFFDS |
| not detected | 0 of 6 | GFTLNEYGIS | VIYSDGRWTFYTDSVK | GRFAGTFDS |
| 0.90 | 1 of 6 | GFTLLSYGIS | VIYSDGRRVFYGDSVK | GRVAGTFDM |
| 0.31 | 6 of 6 | GFTLNEYGIS | VIYSDGRRTFYTDSVK | GRMAGTFDI |
| 1.80 | 1 of 6 | GFSLNDYGIS | VIYSDGRRTFYGDSVK | GRKAGTFIS |
| 0.69 | 6 of 6 | GFELNSYGIS | VIYSDGRRTAYKDSVK | GRAAGTFDS |
| not detected | 0 of 6 | GFSLNSYGIS | VIYSDGRRTFYSDSVK | GQAGGTFDS |
| 1.09 | 6 of 6 | GFDLNSYGIS | VIYSDGRRTFYVDSVK | GQLAGTFDS |
| -0.56 | 6 of 6 | GFNLDEYGIS | VIYADGRRTFYADSVK | GNVAGTFDS |
| -1.00 | 5 of 6 | GFDLNEYGIS | VIYADGRRTFYADSVK | GEQAGTFDL |
| not detected | 0 of 6 | GFNLGEYGIS | VIYADGRRTFYINSVK | GEFIVMNVD |
| not detected | 0 of 6 | GFTLKSYGIS | VIYSDGRRTFYGDSVK | GRAAGTFDS |
| not detected | 0 of 6 | GFNLDEYGIS | VIYADGRRTAYKDTVK | GVRTFEFDL |
| 0.62 | 6 of 6 | GFDLNEYGIS | VIYADGRRTFYADSVK | GQNAGTFDL |
| 0.74 | 6 of 6 | GFTLNEYGIS | VIYSDGRRTFYGDSVK | GRAAGTFET |
| -0.53 | 6 of 6 | GFDLNEYGIS | VIYADGMRTAYSDSVK | GSNAGTFDL |
| 1.08 | 6 of 6 | GFQLNEYGIS | VIYSDGRRTFYGDSVK | GRTAGTFDD |
| 1.82 | 4 of 6 | GFTLNDYGIS | VIYSDGRRTFYKDSVK | GRAAGTFES |
| not detected | 0 of 6 | GFNLDEYGIS | VIYADGIRSHYVDDVK | GKHGGGKLD |
| 0.96 | 3 of 6 | GFTLNSYGIS | VIYSDGRRTFYGDDVK | GEAAGTFDN |
| -0.69 | 6 of 6 | GFDLNEYGIS | VIYADGRRSFYADSVK | GQLAGTFDQ |
| not detected | 0 of 6 | GFTLNSYGIS | VIYSDLRRTFYNQSVK | GRAGGTFDS |

Repeated from above, the 12 best binders with a signal in all replicates:

CDR-H1,CDR-H2,CDR-H3,"log10 Kd (nM), mean",detected
GFDLNEYGIS,VIYADGRRTAYADDVK,GQVAGTFDV,-0.92,6 of 6
GFDLNEYGIS,VIYADGRRSFYADSVK,GQLAGTFDQ,-0.69,6 of 6
GFDLNEYGIS,VIYADGFRTAYADSVK,GNVAGTFDV,-0.65,6 of 6
GFDLNEYGIS,VIYADGVRTAYANSVK,GNVAGTFDI,-0.57,6 of 6
GFNLDEYGIS,VIYADGRRTFYADSVK,GNVAGTFDS,-0.56,6 of 6
GFDLNEYGIS,VIYADGMRTAYSDSVK,GSNAGTFDL,-0.53,6 of 6
GFDLNEYGIS,VIYADGMRTFYDDSVK,GQVAGTFDF,-0.35,6 of 6
GFDLNEYGIS,VIYADGKRTQYIDSVK,GEAAGTFDS,-0.24,6 of 6
GFDLDEYGIS,VIYADGQRTAYTDSVK,GENAGTFDI,-0.21,6 of 6
GFDLNEYGIS,VIYADGKRTFYADSVK,GENAGTFDI,-0.06,6 of 6
GFDLNEYGIS,VIYADGRRTFYADSVK,GEIAGTFVF,-0.04,6 of 6
GFSLNSYGIS,VIYSDGRRTFYSDDVK,GEAAGTFDS,0.12,6 of 6

Data: MIT Lincoln Laboratory AlphaSeq set, Li et al. 2023, doi:10.1038/s41467-023-39022-2, as distributed in FLAb.